Source: patent US11618753B2 (priority 2018, dated 2023)
Where two headings read alike, the source gives them in different places.

By UniProt entry, the sequences of proteins in these tests, tags left out. Where a name states a change or a piece, a line headed by the entry shows the natural chain unless it says otherwise. Residues count along the entry.
UniProt O00329: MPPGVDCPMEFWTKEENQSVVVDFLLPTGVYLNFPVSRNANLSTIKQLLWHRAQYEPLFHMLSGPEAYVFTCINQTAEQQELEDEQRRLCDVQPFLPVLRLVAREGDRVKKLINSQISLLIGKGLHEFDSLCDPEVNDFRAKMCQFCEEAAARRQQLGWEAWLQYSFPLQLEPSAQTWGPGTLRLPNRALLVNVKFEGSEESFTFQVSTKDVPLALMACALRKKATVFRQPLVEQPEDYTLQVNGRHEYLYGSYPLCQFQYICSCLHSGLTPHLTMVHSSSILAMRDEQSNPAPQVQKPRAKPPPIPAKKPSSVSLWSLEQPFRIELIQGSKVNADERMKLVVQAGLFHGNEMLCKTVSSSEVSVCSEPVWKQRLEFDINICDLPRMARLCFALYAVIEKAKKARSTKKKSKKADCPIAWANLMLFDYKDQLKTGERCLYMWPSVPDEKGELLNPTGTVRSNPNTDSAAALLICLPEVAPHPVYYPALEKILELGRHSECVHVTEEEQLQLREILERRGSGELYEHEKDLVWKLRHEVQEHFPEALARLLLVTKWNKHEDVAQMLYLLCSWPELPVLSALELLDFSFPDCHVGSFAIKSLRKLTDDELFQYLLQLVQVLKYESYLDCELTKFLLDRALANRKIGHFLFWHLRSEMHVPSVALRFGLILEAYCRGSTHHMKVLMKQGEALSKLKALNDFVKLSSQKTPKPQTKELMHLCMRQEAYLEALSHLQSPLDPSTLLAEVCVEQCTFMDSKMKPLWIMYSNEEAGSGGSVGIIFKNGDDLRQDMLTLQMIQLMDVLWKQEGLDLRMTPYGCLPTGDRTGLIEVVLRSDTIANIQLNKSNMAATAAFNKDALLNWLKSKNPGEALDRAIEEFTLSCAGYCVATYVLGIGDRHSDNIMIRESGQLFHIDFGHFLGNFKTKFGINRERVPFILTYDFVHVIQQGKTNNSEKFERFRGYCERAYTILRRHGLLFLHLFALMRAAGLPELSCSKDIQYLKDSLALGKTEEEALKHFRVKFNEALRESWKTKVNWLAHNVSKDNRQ
UniProt Q13546, 1-324: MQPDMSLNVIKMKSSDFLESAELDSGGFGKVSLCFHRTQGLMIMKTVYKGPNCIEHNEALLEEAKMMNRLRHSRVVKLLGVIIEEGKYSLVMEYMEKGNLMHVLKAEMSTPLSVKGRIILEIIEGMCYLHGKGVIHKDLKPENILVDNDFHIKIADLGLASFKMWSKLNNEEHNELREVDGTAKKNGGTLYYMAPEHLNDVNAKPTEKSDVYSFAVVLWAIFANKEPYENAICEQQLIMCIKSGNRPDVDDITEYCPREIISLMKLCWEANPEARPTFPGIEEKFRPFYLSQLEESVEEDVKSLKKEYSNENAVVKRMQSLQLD

Columns and labels:
[1] = molecular target: T1, GST-tagged PIK3Cδ in complex with PIK3R1 (Homo sapiens (Human), UniProt O00329); experiment: biochemical
[2] = molecular target: His-GST-TVMV-hRIPK1(1-324) (Homo sapiens (Human), UniProt Q13546); experiment: biochemical; conditions: HTRF Binding Assay (IC50, uM)
[3] = molecular target: T1, GST-tagged PIK3Cδ in complex with PIK3R1

Row | SMILES | IC50 [1] | IC50 [2] | RIPK1 Selectivity (x fold) >100 x [3] | IC50 ([3]; read-out: PIK3Cδ IC50)
1 | COc1ncc(-c2cc(C#N)c3c(N)ncnn23)cc1C(=O)Nc1cnn(Cc2ccccc2)c1 [Example 9, 5-{4-amino-5-cyanopyrrolo[2,1-f][1,2,4]triazin-7-yl}-N-(1-benzyl-1H-pyrazol-4-yl)-2-methoxypyridine-3-carboxamide] | > 1.5 µM | 0.0021 µM | – | –
2 | Cc1ncc(-c2cc(C(F)(F)F)c3c(N)ncnn23)cc1C(=O)NCCC(C)c1ccccc1 (centres unmarked) [Example 171, 5-[4-amino-5-(trifluoromethyl)pyrrolo[2,1-f][1,2,4]triazin-7-yl]-2-methyl-N-(3-phenylbutyl)pyridine-3-carboxamide] | 0.28 µM | 0.0024 µM | x (key: >100 x) | –
3 | COc1ncc(-c2cc(C(F)(F)F)c3c(N)ncnn23)cc1C(=O)NCc1ccccc1Oc1ccccc1 [Example 1352, 5-[4-amino-5-(trifluoromethyl)pyrrolo[2,1-f][1,2,4]triazin-7-yl]-2-methoxy-N-[(2-phenoxyphenyl)methyl]pyridine-3-carboxamide] | – | 0.014 µM | – | –
4 | COc1ncc(-c2cc(C(F)(F)F)c3c(N)ncnn23)cc1C(=O)N[C@@H]1CN(S(=O)(=O)Cc2ccccc2[N+](=O)[O-])C[C@@H]1F [Example 1487, 5-[4-amino-5-(trifluoromethyl)pyrrolo[2,1-f][1,2,4]triazin-7-yl]-N-[(3R,4S)-4-fluoro-1-[(2-nitrophenyl)methanesulfonyl]pyrrolidin-3-yl]-2-methoxypyridine-3-carboxamide] | – | 0.0038 µM | – | –
5 | COc1ncc(-c2cc(CN3CCC(F)(F)CC3)c3c(N)ncnn23)cc1C(=O)NC1CN(S(=O)(=O)C(C)C(F)(F)F)C[C@@H]1F (stereo partly drawn) [Example 1543, 5-{4-amino-5-[(4,4-difluoropiperidin-1-yl)methyl]pyrrolo[2,1-f][1,2,4]triazin-7-yl}-N-[(3R,4S)-4-fluoro-1-(1,1,1-trifluoropropane-2-sulfonyl)pyrrolidin-3-yl]-2-methoxypyridine-3-carboxamide] | > 15 µM | – | x (key: >100 x) | –
6 | COc1ncc(-c2cc(CN3CCC(F)(F)CC3)c3c(N)ncnn23)cc1C(=O)NC1CN(S(=O)(=O)C(C)C(F)(F)F)C[C@@H]1F (stereo partly drawn) [Example 1544, 5-{4-amino-5-[(4,4-difluoropiperidin-1-yl)methyl]pyrrolo[2,1-f][1,2,4]triazin-7-yl}-N-[(3R,4S)-4-fluoro-1-(1,1,1-trifluoropropane-2-sulfonyl)pyrrolidin-3-yl]-2-methoxypyridine-3-carboxamide] | – | – | x (key: >100 x) | > 15 µM
